Source: patent US20030224390A1, “Method of identifying conformation-sensitive binding peptides and uses thereof” (Karo Bio AB, priority 2000, published 2003)

Sequences of proteins named here, by UniProt entry; tags and fusion partners are left off.
UniProt P03372, whole entry: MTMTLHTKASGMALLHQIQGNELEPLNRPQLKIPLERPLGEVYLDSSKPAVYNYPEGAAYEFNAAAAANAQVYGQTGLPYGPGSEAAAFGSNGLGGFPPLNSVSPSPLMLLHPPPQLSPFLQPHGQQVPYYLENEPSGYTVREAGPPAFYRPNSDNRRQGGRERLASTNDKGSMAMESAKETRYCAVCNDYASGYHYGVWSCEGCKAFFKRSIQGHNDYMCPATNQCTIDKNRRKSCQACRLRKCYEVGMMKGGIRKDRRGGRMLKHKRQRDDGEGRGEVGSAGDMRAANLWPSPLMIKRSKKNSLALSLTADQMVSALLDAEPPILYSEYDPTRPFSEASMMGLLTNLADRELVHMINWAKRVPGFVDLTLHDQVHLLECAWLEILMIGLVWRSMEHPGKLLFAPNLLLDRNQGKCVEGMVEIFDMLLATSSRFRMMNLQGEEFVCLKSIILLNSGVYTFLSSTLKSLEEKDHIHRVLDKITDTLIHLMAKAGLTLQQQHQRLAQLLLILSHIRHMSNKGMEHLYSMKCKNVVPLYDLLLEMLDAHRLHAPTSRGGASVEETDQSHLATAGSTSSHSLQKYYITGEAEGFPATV

Biological target: ERα (Homo sapiens, UniProt P03372)
Experiment: Binding of the peptide probes to ERα in the presence of modulators (Table 15a)

- Equiv. (equivalency), peptide probe α/βI on ERα (probe α/βI, positive: % of maximum stimulation by the modulator used to isolate the probe, negative: % of reduction by ICI 182,780): 0%
- Equiv. (equivalency), peptide probe α/βIII on ERα (probe α/βIII, reference 4-OH tamoxifen, negative: % of reduction by ICI 182,780): 0%
- Equiv. (equivalency), peptide probe α/βIV on ERα (probe α/βIV, reference 4-OH tamoxifen, negative: % of reduction by ICI 182,780): 0%
- Equiv. (equivalency), peptide probe α/βV on ERα (probe α/βV, reference 4-OH tamoxifen): 0%
Compound: CC/C(=C(\c1ccc(O)cc1)c1ccc(/C=C/C(=O)O)cc1)c1ccccc1 [GW7604]
